Among the data in article PMC11106745 (ACS Chemical Biology, 2024) are IC50 values, retold here.

Usually IC50 stands for the concentration needed to halve the response being measured. A high value points to a need for much substance.

Assay [1] addresses T1, MacroD1 (Homo sapiens, UniProt Q9BQ69).
T1 construct: made in house
T1 sequence (Q9BQ69 1-325): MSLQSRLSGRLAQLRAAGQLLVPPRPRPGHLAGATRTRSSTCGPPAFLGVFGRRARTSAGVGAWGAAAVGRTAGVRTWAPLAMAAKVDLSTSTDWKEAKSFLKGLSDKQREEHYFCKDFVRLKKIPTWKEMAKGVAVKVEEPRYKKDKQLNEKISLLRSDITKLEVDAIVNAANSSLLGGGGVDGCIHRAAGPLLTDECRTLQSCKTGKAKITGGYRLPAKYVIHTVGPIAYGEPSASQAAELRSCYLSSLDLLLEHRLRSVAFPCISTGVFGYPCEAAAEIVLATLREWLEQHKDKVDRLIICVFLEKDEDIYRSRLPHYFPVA
The assay can be described thus: IC50 curves of binding to MacroD1 (Figure S2).

In assay [2] the target is T2, MacroD2 (Homo sapiens, UniProt A1Z1Q3).
T2 construct: made in house
T2 sequence (A1Z1Q3 1-425): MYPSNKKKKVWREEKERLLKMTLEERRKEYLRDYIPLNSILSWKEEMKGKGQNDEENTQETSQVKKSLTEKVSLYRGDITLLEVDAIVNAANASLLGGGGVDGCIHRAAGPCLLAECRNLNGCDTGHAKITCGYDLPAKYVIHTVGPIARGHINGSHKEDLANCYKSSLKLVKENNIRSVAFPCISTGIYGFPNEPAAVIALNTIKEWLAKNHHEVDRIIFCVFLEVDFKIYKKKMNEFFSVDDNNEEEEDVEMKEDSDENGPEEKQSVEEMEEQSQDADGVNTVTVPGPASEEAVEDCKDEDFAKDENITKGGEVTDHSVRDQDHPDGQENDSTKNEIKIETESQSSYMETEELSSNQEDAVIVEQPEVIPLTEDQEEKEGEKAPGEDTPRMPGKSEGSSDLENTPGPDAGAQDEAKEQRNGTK
The assay can be described thus: IC50 curves of binding to MacroD2 (Figure S2).

In the case of “adenosine diphosphate ribose [ADPr, reference compound]”, the values for the IC50 in assay [1] and in assay [2] were 1500 nM and 1000 nM, respectively.
